Results taken from patent US11191743B2, “Modulators of zinc activated cation channel” (Dignity Health, priority 2016, dated 2021).

Target: T1, ZACN (Homo sapiens, UniProt Q401N2)
T1 sequence (Q401N2 26-412): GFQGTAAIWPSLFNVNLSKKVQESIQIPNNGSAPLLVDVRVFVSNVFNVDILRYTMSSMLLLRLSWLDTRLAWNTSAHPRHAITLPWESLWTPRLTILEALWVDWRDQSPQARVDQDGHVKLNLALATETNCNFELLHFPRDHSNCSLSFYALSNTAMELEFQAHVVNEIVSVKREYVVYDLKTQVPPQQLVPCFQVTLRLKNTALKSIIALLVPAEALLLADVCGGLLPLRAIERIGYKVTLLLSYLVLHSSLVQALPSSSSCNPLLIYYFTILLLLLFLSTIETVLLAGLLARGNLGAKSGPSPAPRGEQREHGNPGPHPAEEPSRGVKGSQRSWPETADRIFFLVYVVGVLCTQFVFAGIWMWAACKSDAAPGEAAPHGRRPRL
Test: Two-electrode voltage-clamp, ZACN expressed in Xenopus laevis oocytes: agonist-induced current
Assay type: cell-based
Set-up: host or cells: Xenopus laevis oocytes injected with cRNA (pGEMHE vector, T7 transcript)
Source text: The cDNA encoding wild type, human ZACN was purchased from OpenBiosystems, and cloned into the pGEMHE vector in the T7 orientation. For cRNA synthesis, cDNA templates were PCR amplified using primers that cover the M13 forward and reverse regions and high fidelity Phusion DNA polymerase (New England Biolab, Ipswich, Mass., USA). PCR products were then purified and served as templates for cRNA synthesis. cRNAs were transcribed by T7 RNA polymerase (Promega, Madison, Wis., USA) using standard in vitro transcription protocols. After digestion of the DNA template by RNase-free DNase I, cRNAs were purified and resuspended in diethyl pyrocarbonate (DEPC)-treated water. cRNA integrity was examined on a 1% agarose gel, and cRNA concentration was determined by optical density measurements at 260 nm using an Eppendorf Biophotometer.
Oocytes were harvested from female Xenopus laevis (Xenopus I, Ann Arbor, Mich., USA), using the protocol “Xenopus Care and Use” approved by the Institutional Animal Care and Use Committee of the St. Joseph's Hospital and Medical Center. Stage VI oocytes were selected and incubated at 16° C. before injection. […]

For `COc1cc(-c2ccc(-n3nc(-c4ccccc4)n[n+]3-c3ccc([N+](=O)[O-])cc3)c(OC)c2)ccc1-n1nc(-c2ccccc2)n[n+]1-c1ccc([N+](=O)[O-])cc1` [Nitro Blue Tetrazolium], the “EC50 of NBT relative to that of ZnCl2 (fold lower)” value was “approximately 100 fold” and the EC50 (EC50 in activating ZACN, ZACN expressed in X. laevis oocytes) was 17 µM.
